Measured affinities in a library of Ab-14 heavy chain variants

Target: peptide PDVDLGDISGINAS, taken from heptad repeat 2 (HR2) of SARS-CoV-2 spike.

Each scFv is VH, a (GGGGS)3 linker, VL, as in the parent Ab-14, and differs from it in the CDRs of the heavy chain only.
VH: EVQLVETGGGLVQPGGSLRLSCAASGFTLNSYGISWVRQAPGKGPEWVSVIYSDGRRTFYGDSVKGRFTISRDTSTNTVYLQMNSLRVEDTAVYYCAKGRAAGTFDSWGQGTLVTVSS
VL: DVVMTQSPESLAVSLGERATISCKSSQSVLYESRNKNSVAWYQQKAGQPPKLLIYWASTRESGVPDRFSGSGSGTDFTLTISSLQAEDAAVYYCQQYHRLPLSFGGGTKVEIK

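Phage display of a naive human antibody library on the peptide gave the parent. This is the validation round: designs drawn from the data on random variants, tested in the same kind of assay. Their group label is 14H_En_HC (En: ensemble of fine-tuned language models; HC: hill climbing; a sequence that several methods proposed may carry one label only). In AlphaSeq, yeast of one mating type display the scFv and yeast of the other type display the target. The frequency of each diploid, read from paired DNA barcodes, reflects how well the two displayed proteins bind. A regression on co-assayed BCL2-family reference pairs converts the normalised counts of each replicate to an apparent Kd. Mating was done six times.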

Each variant is given by its three heavy chain CDRs, as the data file delimits them; those of the parent are GFTLNSYGIS, VIYSDGRRTFYGDSVK, GRAAGTFDS.
The read-out is the apparent dissociation constant on a log10 scale (nM): the lower, the stronger.
A pair that was not seen in that replicate is written "ND"; this usually means weak binding, but a binder can also be missed.

| # | CDR-H1 | CDR-H2 | CDR-H3 | replicates, log10 nM | control signals |
|---|---|---|---|---|---|
| 1 | GFDLNEYGIS | VIYADGRRTQYIDSVK | GETAGTFDE | -0.31 / -0.57 / -1.06 / -1.62 / -0.59 / -0.75 | 0/18 |
| 2 | GFNLNEYGIS | VIYADGRRTFYADSVK | GEIAGTFIL | 1.22 / 0.64 / 0.59 / -0.04 / 0.89 / 0.74 | 0/18 |
| 3 | GFDLNEYGIS | VIYADGRRTFYSDSVK | GNLAGTFDS | 0.10 / -0.01 / -0.36 / -0.56 / -0.19 / -0.28 | 1/18 (1.75) |
| 4 | GFDLNEYGIS | VIYADGLRTSYADSVK | GQTAGTFDQ | 0.21 / 0.10 / 0.10 / 0.82 / 0.73 / 0.60 | 0/18 |
| 5 | GFNLNEYGIS | VIYADGRRTFYADSVK | GSQAGTFDM | 0.45 / -0.07 / -0.41 / -0.26 / -0.16 / -0.37 | 0/18 |
| 6 | GFDLNEYGIS | VIYADGRRTFYTDSVK | GAIAGTFDQ | -0.55 / -0.64 / -0.52 / -0.91 / -0.75 / -0.39 | 0/18 |
| 7 | GFDLNEYGIS | VIYADGSRTFYSDSVK | GNQAGTFDL | 0.73 / 0.59 / 0.41 / 0.30 / 0.45 / 0.83 | 0/18 |
| 8 | GFDLDEYGIS | VIYADGRRTFYQDSVK | GQVAGTFDQ | -0.88 / -0.75 / -1.00 / -0.77 / -0.87 / -0.79 | 0/18 |
| 9 | GFDLDEYGIS | VIYADGRRTFYQDSVK | GNVAGTFDV | -0.46 / -0.50 / -0.57 / -0.84 / -0.30 / -0.53 | 0/18 |
| 10 | GFDLNEYGIS | VIYADGRRTFYADSVK | GNNAGTFID | 0.58 / -0.05 / -0.14 / 0.01 / 0.04 / 0.26 | 0/18 |
| 11 | GFDLNEYGIS | VIYADGRRTFYADSVK | GNNAGTFIQ | ND / 1.01 / 1.46 / 2.49 / ND / ND | 0/18 |
| 12 | GFDLDEYGIS | VIYADGRRTFYQDSVK | GQNAGTFDT | ND / 0.60 / 0.93 / 0.15 / 0.09 / 1.75 | 1/18 (1.02) |
| 13 | GFDLNEYGIS | VIYADGRRTFYADSVK | GNQAGTFDT | -0.44 / -0.89 / -0.58 / -0.52 / -1.00 / -0.50 | 1/18 (1.42) |
| 14 | GFDLNEYGIS | VIYADGRRTFYIDSVK | GEIAGTFNL | 1.81 / 0.11 / -0.22 / 0.23 / -0.17 / 0.40 | 0/18 |
| 15 | GFNLNEYGIS | VIYADGVRTFYADSVK | GEIAGTFDV | -0.34 / -0.68 / -0.69 / -0.83 / -0.89 / -0.50 | 0/18 |
| 16 | GFNLDEYGIS | VIYADGRRTFYSDNVK | GETAGTFDI | -0.66 / -0.51 / -0.68 / -0.88 / -0.67 / -0.51 | 0/18 |
| 17 | GFDLNEYGIS | VIYADGRRTYYIDSVK | GTNAGTFDS | -0.16 / -0.05 / -0.42 / -0.24 / -0.20 / -0.11 | 1/18 (2.54) |
| 18 | GFDLNEYGIS | VIYADGRRTFYSDSVK | GAMAGTFDQ | 0.17 / 0.28 / 0.03 / 0.28 / 0.62 / 0.33 | 0/18 |
| 19 | GFDLNEYGIS | VIYADGRRTFYIDSVK | GEQAGTFDV | -0.57 / -0.78 / -0.70 / -0.87 / -0.70 / -0.39 | 0/18 |
| 20 | GFDLNEYGIS | VIYADGRRTAYSDSVK | GGNAGTFDM | -0.93 / -0.18 / -0.37 / -0.40 / -0.83 / 0.01 | 0/18 |
| 21 | GFDLNEYGIS | VIYADGVRTFYSDSVK | GEVAGTFDQ | -0.43 / -0.39 / -0.56 / -0.40 / -0.59 / -0.27 | 0/18 |
| 22 | GFDLNEYGIS | VIYADGQRTFYADSVK | GEHAGTFDI | -0.58 / -0.64 / -0.78 / -1.02 / -0.55 / -0.76 | 0/18 |
| 23 | GFDLNEYGIS | VIYADGRRTAYVDSVK | GEAAGTFDV | -0.58 / -0.61 / -0.71 / -0.70 / -0.47 / -0.44 | 0/18 |
| 24 | GFDLNEYGIS | VIYADGRRTSYADSVK | GNVAGTFDT | 0.74 / -0.62 / 0.03 / 1.26 / 0.61 / -0.37 | 0/18 |
| 25 | GFNLDEYGIS | VIYADGMRTFYTDSVK | GETAGTFDV | -0.27 / -0.49 / -0.40 / -0.33 / -0.31 / -0.48 | 0/18 |
| 26 | GFDLNEYGIS | VIYADGRRTAYSDSVK | GEAAGFFDL | 0.97 / ND / 1.36 / 1.13 / ND / ND | 0/18 |
| 27 | GFDLEDYGIS | VIYADGRRTFYADSVK | GEIAGTFDS | 0.45 / 0.16 / -0.09 / 0.58 / -0.12 / -0.15 | 0/18 |
| 28 | GFDINEYGIS | VIYADGRRTFYADSVK | GNVGGTFDL | -0.21 / 0.32 / -0.22 / -0.28 / -0.18 / 0.15 | 0/18 |
| 29 | GFDLNEYGIS | VIYADGRRTAYKDSVK | GQLAGTFDT | -0.32 / -0.75 / -0.81 / -0.83 / -0.94 / -0.66 | 1/18 (2.83) |
| 30 | GFDLNEYGIS | VIYADGRRTQYADSVK | GETAGTFDV | -1.77 / -2.39 / -1.45 / -2.44 / -1.72 / -1.12 | 0/18 |
| 31 | GFDLNEYGIS | VIYADGRRTMYTDSVK | GQNAGTFDS | -0.09 / -0.02 / 0.09 / -0.28 / 0.09 / 0.29 | 0/18 |
| 32 | GFDLNEYGIS | VIYADGRRTFYTDSVK | GQLAGTFDE | -0.58 / -0.79 / -0.76 / -0.74 / -0.96 / -0.86 | 2/18 (1.79) |
| 33 | GFGLDEYGIS | VIYADGKRTFYADSVK | GENAGTFLM | 0.80 / 0.66 / 0.95 / 1.25 / 0.62 / 0.58 | 0/18 |
| 34 | GFDLNEYGIS | VIYADGRRSAYQDSVK | GTNAGTFDQ | -0.11 / -0.36 / -0.35 / -0.47 / -0.38 / -0.32 | 0/18 |
| 35 | GFDLNEYGIS | VIYADGRRTFYADSVK | GNAAGTFDV | 0.15 / 0.97 / 1.28 / 0.41 / 0.41 / 0.67 | 0/18 |
| 36 | GFDLNEYGIS | VIYADGRRTAYVDSVK | GHAAGTFDV | -0.91 / -1.37 / -1.47 / -1.89 / -1.46 / -1.44 | 0/18 |
| 37 | GFDLNEYGIS | VIYADGMRTQYIDSVK | GNAAGTFDS | 0.61 / -0.41 / -0.21 / -0.62 / -0.66 / 0.20 | 0/18 |
| 38 | GFDLNEYGIS | VIYADGRRTAYLDSVK | GQLAGTFDI | 0.12 / -0.27 / 0.20 / -0.08 / -0.07 / -0.16 | 0/18 |
| 39 | GFNLNEYGIS | VIYADGMRTFYADSVK | GQQAGTFDM | -0.46 / -0.27 / -1.05 / -0.83 / -0.69 / -0.38 | 1/18 (1.65) |

The authors' rule: three or more of the six replicates give a measured affinity, fewer mean a poor binder.
Values of this round are not directly comparable with the first-round values of the same sequences.
As a blank, each scFv also met three strains without target: over all heavy chain designs, 1% of these pairings were detected, typically at 2.08 and seldom below 0.84. For each scFv, signals with the empty controls are counted beside the result, with their mean in brackets.
The parent sequence was in this pool as ten entries: three were never detected, three once, and four in most replicates, with averages from 0.34 to 2.37.

Reference: Li et al. 2023, doi:10.1038/s41467-023-39022-2. File: FLAb, binding data.